Reference: patent US20070135383A1, “Phospholipase inhibitors, including multi-valent phospholipase inhibitors, and use thereof, including as lumen-localized phospholipase inhibitors” (priority 2005, published 2007)

Chains of the proteins cited; added tags and fusions are not shown. Residues count along the entry.
UniProt P04054, 23-148 limits assumed: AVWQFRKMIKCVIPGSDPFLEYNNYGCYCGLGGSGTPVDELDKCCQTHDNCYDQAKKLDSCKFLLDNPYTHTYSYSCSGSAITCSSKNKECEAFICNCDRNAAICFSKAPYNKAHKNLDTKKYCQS
UniProt Q9Z0Y2, 23-146 limits assumed: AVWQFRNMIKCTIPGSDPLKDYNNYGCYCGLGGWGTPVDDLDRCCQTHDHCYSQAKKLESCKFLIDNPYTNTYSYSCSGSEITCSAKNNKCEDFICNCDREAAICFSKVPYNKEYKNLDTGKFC
UniProt P00592, 23-146 limits assumed: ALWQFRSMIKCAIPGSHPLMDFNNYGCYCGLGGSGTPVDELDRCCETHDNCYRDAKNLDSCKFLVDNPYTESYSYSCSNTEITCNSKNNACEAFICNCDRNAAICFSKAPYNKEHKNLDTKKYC

Columns and labels:
Assay in all cases: Fluorimetric PPyrPM assay for group 1B PLA2 inhibition (Example 12)
[1] = target: human group 1B PLA2 (hps PLA2) (Homo sapiens, UniProt P04054); conditions: read-out: ILYPSA IC50 hps PLA2; human pancreas secreted PLA2
Description: (§1) In this example, a fluorimetric assay procedure was used to evaluate the indole and indole-related compounds of the invention as inhibitors of group 1B phospholipase A2 (PLA2) from human, mouse and porcine. A description of this assay is found in articles: Leslie, C C and Gelb, M H (2004) Methods in Molecular Biology “Assaying phospholipase A2 activity”, 284:229-242; Singer, A G, et al. (2002) Journal of Biological Chemistry “Interfacial kinetic and binding properties of the complete set of human and mouse groups I, II, V, X, and XII secreted phospholipases A2”, 277:48535-48549, which are incorporated herein as references.
(§2) In general, this assay used a phosphatidylmethanol substrate with a pyrene fluorophore on the terminal end of the sn-2 fatty acyl chain. Without being bound by theory, close proximity of the pyrenes from neighboring phospholipids in a phospholipid vesicle caused the spectral properties to change relative to that of monomeric pyrene. Bovine serum albumin was present in the aqueous phase and captured the pyrene fatty acid when it is liberated from the glycerol backbone owing to the PLA2-catalyzed reaction. […] The effect of a given inhibitor and inhibitor concentration on human, mouse and porcine phospholipase was determined. […]
(§3) The following procedure was performed to evaluate the inhibitory potency of the evaluated compounds. • 14. […]

[2] = target: mouse group 1B PLA2 (mps PLA2) (Mus musculus, UniProt Q9Z0Y2); conditions: read-out: ILYPSA IC50 mps PLA2; mouse pancreas secreted PLA2
Description: as §1, §2, §3

[3] = target: porcine group 1B PLA2 (pps PLA2) (Sus scrofa, UniProt P00592); format: biochemical; conditions: read-out: ILYPSA IC50 pps PLA2; porcine pancreas secreted PLA2
Description: as §1
as §2, with “pyrene.” for “pyrene. Bovine serum albumin was present in the aqueous phase and captured the pyrene fatty acid when it is liberated from the glycerol backbone owing to the PLA2-catalyzed reaction.”
The following procedure was performed to evaluate the inhibitory potency of the evaluated compounds. • 14. […] The fluorescence was read using an excitation of 342 nm and an emission of 395 nm.
Evaluated compounds were tested in duplicate and their values were averaged to plot the inhibition curve and calculate the IC50. […]

Cc1c(C(=O)C(N)=O)c2c(OCC(=O)O)cc([N+](=O)[O-])cc2n1Cc1ccccc1
IC50 [1]: 2800 nM
IC50 [2]: 1080 nM
IC50 [3]: 70 nM
